Patent publication US10035799B2, “COMT inhibiting methods and compositions” (Lieber Institute for Brain Development, priority 2015, dated 2018)

Protein sequences, listed by entry. Tags and fused reporters are not part of them. Residues count along the entry.
UniProt P21964, 52-271 limits assumed: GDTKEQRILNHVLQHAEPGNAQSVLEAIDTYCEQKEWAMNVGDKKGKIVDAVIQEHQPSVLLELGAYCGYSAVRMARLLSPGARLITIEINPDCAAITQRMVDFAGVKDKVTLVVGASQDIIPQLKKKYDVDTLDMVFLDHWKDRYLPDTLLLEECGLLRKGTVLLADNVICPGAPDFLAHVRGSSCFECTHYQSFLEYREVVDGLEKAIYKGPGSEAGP

Target: catechol-O-methyltransferase (COMT) (Homo sapiens, UniProt P21964)
Experiment: COMT inhibition assay (HTRF, production of S-adenosyl homocysteine)
Conditions: recombinant human COMT, HTRF SAH production; MB-COMT or S-COMT not stated for Table 1; tested form: trifluoroacetate (TFA salt)
Method: The ability of compounds to inhibit the activity of catechol-O-methyltransferase (COMT) was determined by a homogenous time-resolved fluorescent (HTRF) assay (Lina et al, 2012; kit from CisBio, Codolet, France). This assay measures the production of S-adenosyl homocysteine (SAH) from the methyl donor S-adenosyl methionine. Recombinant human membrane bound COMT (MB-COMT; M51A variant) was expressed in HEK 293F cells using 293Fectin (Life Technologies, Gent, Belgium) and membranes prepared. The membranes were re-suspended in buffer (20 mM Tris/HCl pH 7; 10 mM glycerol; 2 mM MgCl2; 10 mM NaCl), aliquoted and stored at −80° C. […]
For the human MB-COMT assay, membranes (62 ng/well) were incubated with SAM (20 μM final, CisBio) and dopamine (1.5 μM final; Sigma H8502, Diegem, Belgium) in the presence or absence of varying concentrations (typically 10 concentrations ranging from 10 μM to 0.1 nM) of compound for 40 min at 37° C. in 384-well microtitre plates (10 μl per well final volume). The reaction was terminated by the addition of acylation buffer and the amount of SAH produced determined according to manufacturer's instructions. […]
The human S-COMT assay was performed as above except that 0.15 ng enzyme/well was incubated with SAM (20 μM final) and dopamine (100 μM final) for 15 min at 37° C. and SAH production determined. […]

Activity range (pIC50, COMT inhibition): +++ (a pIC50 of above about 7)
SMILES: O=S(=O)(c1ccc(O)c2ncccc12)C1CCN(Cc2cccc(Cl)c2Cl)CC1 [Example 38, 5-[[1-[(2,3-dichlorophenyl)methyl]-4-piperidyl]sulfonyl]quinolin-8-ol]
